Results taken from PubChem BioAssay AID588590 (National Center for Advancing Translational Sciences (NCATS), 2011).
This is a selection; strong and weak results do not stand in their true shares. Records with an inconclusive call do not appear. Some structures show a salt or complex split into parts, the way the source records it. Calls of active or inactive are those of the source. Calls come from the whole dose curve; as a rule, active = well fitted inhibition curve with a large enough effect; inconclusive = small, poorly fitted or top-dose-only effect, or another doubt; inactive = no such curve, though single readings can be large or run the other way.

Amino acid sequences for entries named in this document (tags omitted).
UniProt Q9UNA4, whole entry: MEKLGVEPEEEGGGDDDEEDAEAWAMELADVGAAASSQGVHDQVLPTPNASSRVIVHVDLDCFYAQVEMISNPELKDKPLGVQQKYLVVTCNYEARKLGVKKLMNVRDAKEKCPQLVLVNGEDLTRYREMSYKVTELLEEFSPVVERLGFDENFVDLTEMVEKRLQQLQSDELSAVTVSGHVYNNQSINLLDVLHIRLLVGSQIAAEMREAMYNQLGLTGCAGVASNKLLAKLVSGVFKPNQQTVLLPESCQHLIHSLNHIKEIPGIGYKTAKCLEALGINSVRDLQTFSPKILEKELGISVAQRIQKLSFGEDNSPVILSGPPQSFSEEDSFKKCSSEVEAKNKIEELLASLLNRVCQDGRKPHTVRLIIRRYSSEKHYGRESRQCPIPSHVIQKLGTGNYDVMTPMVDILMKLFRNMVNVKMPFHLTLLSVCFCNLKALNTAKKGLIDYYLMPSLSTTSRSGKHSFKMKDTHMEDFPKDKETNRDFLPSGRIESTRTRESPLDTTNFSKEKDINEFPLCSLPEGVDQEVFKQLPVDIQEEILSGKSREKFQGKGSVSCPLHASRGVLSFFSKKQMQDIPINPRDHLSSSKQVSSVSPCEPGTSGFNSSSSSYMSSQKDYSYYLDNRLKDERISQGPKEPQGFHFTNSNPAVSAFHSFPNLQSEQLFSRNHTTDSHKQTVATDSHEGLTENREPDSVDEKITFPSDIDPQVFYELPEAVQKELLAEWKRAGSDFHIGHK

These molecules were tested against DNA polymerase iota (Homo sapiens) (UniProt Q9UNA4) (assay: qHTS for Inhibitors of Polymerase Iota). Settings: Pol iota fluorescent replication assay, 10 min; at 115 µM (top of the series).

| SMILES | activity, negative = inhibition |
| --- | --- |
| Cc1cc(N(CCCl)CCCl)ccc1C=O | inactive: 25.2% |
| O=C(NCC1(N2CCOCC2)CCCCC1)c1ccccc1 | inactive: -19.1% |
| CCCN1CCC(Nc2cc(OC)cc(OC)c2)CC1 | inactive: 99.1% |
| c1ccc(CN2CCC(Nc3ccccc3)CC2)cc1 | inactive: 12.1% |
| CN(C)C1(CNC(=O)c2cccc(C#N)c2)CCCCC1 | inactive: 152% |
| O=C(NCC1(N2CCOCC2)CCCCC1)c1ccc([N+](=O)[O-])cc1 | inactive: 7.5% |
| CC(C)(C)OC(=O)N1CCC(N(C(=O)c2ccccc2)c2ccc(Cl)cc2)CC1 | inactive: 18.4% |
| N#Cc1ccc(C(=O)NCC2(N3CCCCC3)CCCCC2)cc1 | inactive: 58.1% |
| O=C(NCC1(N2CCOCC2)CCCCC1)c1ccccc1[N+](=O)[O-] | inactive: 0.343% |
| CCOC(=O)C(CC)C1=NC(C)(C)Cc2ccccc21.O=[N+]([O-])c1cc([N+](=O)[O-])c(O)c([N+](=O)[O-])c1 (stereo not given) | inactive: 14.1% |
| N/C(=N\O)c1c(N)no[n+]1[O-] | inactive: 5.28% |
| CCOC(=O)N1CCC(Nc2ccc(C)cc2)CC1 | inactive: 83.9% |
| O=C(O)c1cccc(Nc2c([N+](=O)[O-])cc([N+](=O)[O-])cc2[N+](=O)[O-])c1 | inactive: -8.8% |
| O=C(OC1CN2CCC1CC2)C1c2ccccc2C=Cc2ccccc21 (stereo not given) | inactive: -5.74% |
| CCc1cc(C(=O)NCC2(N3CCCCC3)CCCCC2)sc1C | inactive: 37.5% |
| O=C(NCC1(N2CCOCC2)CCCCC1)c1cc(Br)ccc1Cl | inactive: 23.2% |
| COc1cc(C(=O)NCC2(N3CCOCC3)CCCCC2)cc(OC)c1C | inactive: -7.01% |
| COc1ccc(C(=O)NCC2(N3CCOCC3)CCCCC2)cc1OC | inactive: -0.526% |
| O=Cc1ccc(N(CCCl)CCCl)cc1 | inactive: 34% |
| CCC(CO)(C(=O)OC1CN2CCC1CC2)c1ccccc1 (stereo not given) | inactive: 6.99% |
| COc1cc(OC)cc(C(=O)NCC2(N3CCOCC3)CCCCC2)c1 | inactive: 102% |
| COc1cc(C(=O)NCC2(N3CCOCC3)CCCCC2)cc(OC)c1OC | inactive: 19.9% |

| SMILES | activity, negative = inhibition |
| --- | --- |
| COc1cccc(C(=O)N(c2cc(C)cc(C)c2)C2CCN(C(=O)OC(C)(C)C)CC2)c1 | inactive: 50.3% |
| CN1CCC(Nc2ccc(Cl)cc2)CC1 | inactive: 9.53% |
| CCOc1ncccc1C(=O)NCC1(N2CCOCC2)CCCCC1 | inactive: 9.36% |
| CCCOc1ccc(C(=O)NCC2(N(C)C)CCCCC2)cc1 | inactive: 32.6% |
| ClCCN(CCCl)c1ccccc1 | inactive: 8.8% |
| O=C(O)C1(Nc2ccccc2)CCN(Cc2ccccc2)CC1 | inactive: 15.6% |
| CCN1CCC(Nc2cccc(F)c2)CC1 | inactive: -0.737% |
| Cc1ccccc1NC1(C#N)CCN(Cc2ccccc2)CC1 | inactive: 11.9% |
| CN(C)c1ccc(C(=O)NCC2(N3CCCCC3)CCCCC2)cc1 | inactive: 60.7% |
| CC(C)(C)c1ccc(C(=O)NCC2(N3CCOCC3)CCCCC2)cc1 | inactive: 7.63% |
| O=C(NCC1(N2CCCCC2)CCCCC1)c1ccco1 | inactive: 32.5% |
| Cc1ccccc1C(=O)NCC1(N(C)C)CCCCC1 | inactive: 21.5% |
| COc1cc(OC)cc(C(=O)NCC2(N3CCCCC3)CCCCC2)c1 | inactive: 29.1% |
| CC(=O)N(c1ccccc1)C1CCNCC1 | inactive: 7.47% |
| CN(C)C1(CNC(=O)c2ccc(C(C)(C)C)cc2)CCCCC1 | inactive: 29.5% |
| Cc1ccc(NC2(C#N)CCN(Cc3ccccc3)CC2)cc1 | inactive: 94.3% |
| Fc1ccccc1NC1CCN(Cc2ccccc2)CC1 | inactive: -11.7% |
| Cc1ccc(C(=O)NCC2(N3CCCCC3)CCCCC2)o1 | inactive: 15.4% |
| COc1cc(C(=O)NCC2(N(C)C)CCCCC2)ccc1OC(F)F | inactive: -12% |
| CCOC(=O)N1CCC(Nc2cccc(C)c2)CC1 | inactive: -4.61% |
| CCOc1ccc(C)cc1CN(CCCl)CCCl | inactive: 133% |
| O=C1CCN(Cc2ccccc2)CC1 | inactive: 8.13% |

| SMILES | activity, negative = inhibition |
| --- | --- |
| O=C(NCC1(N2CCOCC2)CCCCC1)c1ccc(Cl)cc1 | inactive: 5.64% |
| COc1ccc(NC2CCN(CCc3ccccc3)CC2)c(OC)c1 | inactive: 18.2% |
| O=C(NCC1(N2CCCCC2)CCCCC1)c1ccc(F)cc1 | inactive: 39.3% |
| O=P1(N(CCCl)CCCl)SCCCS1 | inactive: 37.6% |
| CCCCOc1ccc(C(=O)NCC2(N3CCOCC3)CCCCC2)cc1 | inactive: 48.3% |
| COc1ccccc1C(=O)NCC1(N2CCOCC2)CCCCC1 | inactive: 13.6% |
| O=C(NCC1(N2CCOCC2)CCCCC1)c1cc2ccccc2o1 | inactive: 9.7% |
| Cc1cc(C)cc(N(C(=O)c2ccccc2)C2CCN(C(=O)OC(C)(C)C)CC2)c1 | inactive: 31.2% |
| O=C(NCC1(N2CCCCC2)CCCCC1)c1ccc(Cl)nc1 | inactive: -4.66% |
| CCOC(=O)N1CCC(Nc2ccc(OC)cc2)CC1 | inactive: 3.99% |
| COc1ccc(Cl)cc1C(=O)NCC1(N2CCOCC2)CCCCC1 | inactive: 1.14% |
| O=C(OC1CN2CCC1CC2)C1c2ccccc2Oc2ccccc21 (stereo not given) | inactive: 20.3% |
| N#CC1(Nc2ccccc2)CCN(Cc2ccccc2)CC1 | inactive: -13.6% |
| O=C(NCC1(N2CCCCC2)CCCCC1)c1ccc(Cl)s1 | inactive: 5.42% |
| O=C(NCC1(N2CCCCC2)CCCCC1)c1cccs1 | inactive: 12.3% |
| O=C(NCC1(N2CCCCC2)CCCCC1)c1ccc(=O)[nH]c1 | inactive: 19.1% |
| CC(C)(C)OC(=O)N1CCC(N(C(=O)c2ccccc2)c2ccc(F)cc2)CC1 | inactive: -12.5% |
| COc1ccc(C(=O)NCC2(N3CCCCC3)CCCCC2)cc1 | inactive: 39.1% |
| Cc1cccc(NC2(C#N)CCN(Cc3ccccc3)CC2)c1 | inactive: 58.2% |
| CSc1ccccc1C(=O)NCC1(N2CCCCC2)CCCCC1 | inactive: 27% |
| COc1ccc2c(c1O)-c1c(O)c(OC)cc3c1[C@H](C2)[N+](C)(C)CC3.O=[N+]([O-])c1cc([N+](=O)[O-])c([O-])c([N+](=O)[O-])c1[O-] | inactive: 46.8% |
